# Measurements from PubChem BioAssay AID504411 (The Scripps Research Institute Molecular Screening Center, 2011).
# Protein sequences, listed by entry. Tags and fused reporters are not part of them.
# UniProt Q8NCG7, whole entry: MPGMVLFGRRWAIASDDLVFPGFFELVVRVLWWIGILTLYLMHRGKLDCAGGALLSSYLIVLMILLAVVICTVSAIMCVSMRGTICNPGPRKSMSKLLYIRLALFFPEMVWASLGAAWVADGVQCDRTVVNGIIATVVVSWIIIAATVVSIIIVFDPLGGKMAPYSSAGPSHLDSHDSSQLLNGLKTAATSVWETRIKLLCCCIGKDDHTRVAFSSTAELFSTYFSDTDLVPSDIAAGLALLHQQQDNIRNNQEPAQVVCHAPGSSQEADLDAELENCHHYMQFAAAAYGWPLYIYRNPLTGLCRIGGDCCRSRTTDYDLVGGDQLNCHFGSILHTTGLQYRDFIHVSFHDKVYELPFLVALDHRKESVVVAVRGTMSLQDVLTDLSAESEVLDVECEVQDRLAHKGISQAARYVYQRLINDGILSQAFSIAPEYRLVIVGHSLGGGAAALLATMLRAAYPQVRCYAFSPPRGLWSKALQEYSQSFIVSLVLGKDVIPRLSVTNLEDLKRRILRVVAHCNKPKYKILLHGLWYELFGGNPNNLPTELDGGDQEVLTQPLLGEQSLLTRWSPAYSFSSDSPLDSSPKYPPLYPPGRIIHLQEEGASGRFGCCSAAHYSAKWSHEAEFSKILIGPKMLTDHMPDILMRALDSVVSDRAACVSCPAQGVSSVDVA
# The list shows a part of the results, in another mix than the full data. Calls of active or inactive are those of the source. Rule as the data show it: active = inhibition above about 34%; inactive = the rest.
# Biological target: Diacylglycerol lipase-beta (Homo sapiens) (UniProt Q8NCG7)
# Experiment: DAGLB lipase inhibitors, primary screen, biochemical, fluorescence, HTS (AID 504411);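 also: 0% = enzyme with vehicle and 100% = wells lacking enzyme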
# Details: HEK293T DAGLB membrane lysate, EnzChek fluorogenic substrate; at 5.17 µM; hits give high values
row,SMILES,inhibition
1,Cc1c(C(c2ccc3c(c2)OCO3)c2c(C)n(C)n(-c3ccccc3)c2=O)c(=O)n(-c2ccccc2)n1C.O=[N+]([O-])c1cc([N+](=O)[O-])c(O)c([N+](=O)[O-])c1,inactive: -3.21%
2,CP(=O)(Nc1ccc(SC(F)(F)F)cc1)Oc1ccc(F)cc1 (stereo unspecified),inactive: -2.36%
3,CCOP(C)(=S)SCC(=O)NC(C)(CC)C(=O)O (stereo unspecified),inactive: -0.3%
4,CP(=O)(Nc1ccc2c(c1)OCCO2)Oc1ccccc1 (stereo unspecified),inactive: 2.38%
5,Cc1ccccc1NP(C)(=O)Nc1ccccc1C,inactive: -1.88%
6,O=[N+]([O-])c1cc([N+](=O)[O-])c(-n2nnc3ccccc32)c([N+](=O)[O-])c1,inactive: 3.25%
7,O=[N+]([O-])c1cc([N+](=O)[O-])c(-c2cnn(-c3ccccc3)c2)c([N+](=O)[O-])c1,inactive: -1.84%
8,Cc1nc2ccc3ccccc3c2s1.O=[N+]([O-])c1cc([N+](=O)[O-])c(O)c([N+](=O)[O-])c1,inactive: 2.67%
9,O=[N+]([O-])c1cc([N+](=O)[O-])c(Nc2nnnn2CCO)c([N+](=O)[O-])c1,inactive: 13.6%
10,CC1=C2N=C(C=C3N=C(C(C)=C4[N-][C@@](C)([C@@H]5N=C1[C@](C)(CCC(=O)NC[C@@H](C)OP(=O)([O-])O[C@H]1[C@@H](O)[C@@H](n6cnc7cc(C)c(C)cc76)O[C@@H]1CO)[C@H]5CC(N)=O)[C@@](C)(CC(N)=O)[C@@H]4CCC(N)=O)[C@@](C)(CC(N)=O)[C@@H]3CCC(N)=O)C(C)(C)[C@@H]2CCC(N)=O.[C-]#N.[Co+3],inactive: 2.91%
11,CCOC(=O)C(CC)C1=NC(C)(C)Cc2ccccc21.O=[N+]([O-])c1cc([N+](=O)[O-])c(O)c([N+](=O)[O-])c1 (stereo unspecified),inactive: 4.04%
12,CN1CCCCC1COC(=O)C1(O)c2ccccc2CCc2ccccc21 (stereo unspecified),inactive: -1.66%
13,COc1ccccc1OP(C)(=O)Nc1c(C)cccc1C (stereo unspecified),inactive: -1.35%
14,CP(=O)(Nc1ccc(SC(F)(F)F)cc1)Oc1ccccc1 (stereo unspecified),inactive: 0.27%
15,CCCOc1ccc(NP(C)(=O)Oc2ccc(Cl)cc2)cc1 (stereo unspecified),inactive: 4.61%
16,O=C(O)c1cccc(Nc2c([N+](=O)[O-])cc([N+](=O)[O-])cc2[N+](=O)[O-])c1,inactive: 6.16%
17,CC1=NCCc2c1[nH]c1ccccc21.O=[N+]([O-])c1cc([N+](=O)[O-])c(O)c([N+](=O)[O-])c1,inactive: 2.13%
18,COc1ccccc1OP(C)(=O)Nc1cccc(Br)c1 (stereo unspecified),inactive: 1.57%
19,Cc1cc(C)cc(OP(C)(=O)Nc2ccc(C)cc2C)c1 (stereo unspecified),inactive: -3.6%
20,CCOC(=O)c1ccc(NP(C)(=O)Oc2cc(C)cc(C)c2)cc1 (stereo unspecified),inactive: -3.07%
21,CP(=O)(Nc1cccc(Br)c1)Oc1ccccc1 (stereo unspecified),inactive: -1.96%
22,Cc1cc(C)cc(OP(C)(=O)Nc2ccccn2)c1 (stereo unspecified),inactive: -2.19%
23,Cc1ccc(C)c(NP(C)(=O)Oc2ccccc2)c1 (stereo unspecified),inactive: 3.26%

row,SMILES,inhibition
1,CCN(CC)CCCOC(=O)C(O)(c1ccccc1)c1ccccc1,inactive: 1.96%
2,O=[N+]([O-])c1cc([N+](=O)[O-])c(Nc2cccnc2)c([N+](=O)[O-])c1,inactive: 6.98%
3,CC(C)(C)c1ccc(OP(C)(=O)Nc2ccc(SC(F)(F)F)cc2)cc1 (stereo unspecified),inactive: -1.41%
4,Cc1cccc(C)c1OP(C)(N)=O (stereo unspecified),inactive: 1.24%
5,O=[N+]([O-])c1ccc2c(c1)C=Nc1ccccc1O2,inactive: 0.36%
6,CCOC(=O)c1ccc(NP(C)(=O)Oc2ccccc2)cc1 (stereo unspecified),inactive: -5.13%
7,COc1ccccc1OP(C)(=O)Nc1ccc(C)cc1 (stereo unspecified),inactive: -0.3%
8,Cc1ccc(NP(C)(=O)Oc2ccccc2)c(C)c1 (stereo unspecified),inactive: -1.44%
9,COc1ccccc1OP(C)(=O)Nc1cc(Cl)ccc1C (stereo unspecified),inactive: -0.91%
10,COc1ccc(OP(C)(=O)Nc2cccc(F)c2)cc1 (stereo unspecified),inactive: -1.39%
11,Cc1cc(C)cc(OP(C)(N)=O)c1 (stereo unspecified),inactive: 2.17%
12,CP(=S)(Nn1cnnc1)Oc1ccccc1 (stereo unspecified),inactive: -1.37%
13,COc1ccccc1OP(C)(=O)Nc1ccccc1 (stereo unspecified),inactive: -0.76%
14,CP(=O)(Nc1ccccc1Br)Oc1ccccc1 (stereo unspecified),inactive: -1.75%
15,Cc1ccc(Nc2c([N+](=O)[O-])cc([N+](=O)[O-])cc2[N+](=O)[O-])cc1,inactive: 13.8%
16,Cc1cccc(C)c1OP(C)(=O)Nc1ccc(SC(F)(F)F)cc1 (stereo unspecified),inactive: -1.55%
17,CP(=O)(Oc1ccccc1)OC(c1ccccc1)C(F)(F)F (stereo unspecified),inactive: -1.49%
18,CCc1ccc(OP(C)(=O)N2CCN(c3ccc([N+](=O)[O-])cc3)CC2)cc1 (stereo unspecified),inactive: 0.94%
19,CP(=O)(NC(=O)Nc1ccccc1)Oc1ccccc1 (stereo unspecified),inactive: -6.43%
20,Cc1cc(C)cc(OP(C)(=O)Nc2ccc(SC(F)(F)F)cc2)c1 (stereo unspecified),inactive: -1.8%
21,CCOP(C)(=S)SCC(=O)NC(C)C(=O)O (stereo unspecified),inactive: 0.24%
22,CCOC(=O)c1ccc(NP(C)(=O)Oc2ccc(OC)cc2)cc1 (stereo unspecified),inactive: -1.85%
23,CP(=O)(Nc1ccccn1)Oc1ccc(Cl)cc1 (stereo unspecified),inactive: -1.29%
